AlphaSeq binding of Ab-14 light chain variants to a spike HR2 peptide

Antigen: PDVDLGDISGINAS, a 14-residue peptide of the SARS-CoV-2 spike HR2 region.

Parent scFv Ab-14: VH joined to VL by a 15-residue (Gly4Ser)3 linker. Changes lie in the light chain CDRs alone.
VH: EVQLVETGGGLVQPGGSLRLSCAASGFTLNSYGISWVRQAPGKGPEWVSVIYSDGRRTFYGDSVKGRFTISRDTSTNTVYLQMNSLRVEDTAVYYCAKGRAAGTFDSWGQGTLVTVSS
VL: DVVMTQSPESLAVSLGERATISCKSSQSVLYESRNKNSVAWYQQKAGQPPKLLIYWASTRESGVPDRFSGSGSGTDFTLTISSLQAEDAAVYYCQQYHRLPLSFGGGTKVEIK

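Phage display of a naive human antibody library on the peptide gave the parent. Variants in AAYL50 differ from the parent at up to three CDR positions; double and triple changes were sampled at random. AlphaSeq pools MATa yeast showing the antibodies with MATalpha yeast showing the peptide. Binding brings cells together so that they mate, and sequencing counts the barcode pairs among the diploids. A regression on co-assayed BCL2-family reference pairs converts the normalised counts of each replicate to an apparent Kd. The assay was run in three technical replicates.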

Changes read parent residue, position, new residue, counted from the first residue of the VL shown. Every variant below is changed at R60 of the VL (sequential numbering). Each Kd is an estimate from the mating assay, the geometric mean of the replicates in which the pair was seen; lower is stronger. "no signal" means that the variant was in the library but no mating with the target was seen in any replicate; the authors take this as a sign of poor binding, and no number exists. The list is sorted by this average, lowest first, undetected variants last. For reference, the parent read 4.4 nM as the reference entry and 48 nM as a member of this library.

With K36V+W56D+R60A the result was 1.2 nM (3 of 3 replicates; controls 4 of 9). Variant R34C+W56G+R60L gave 2.0 nM (3 of 3 replicates; controls 1 of 9). With S25M+S28D+R60H the result was 6.7 nM (3 of 3 replicates; controls 1 of 9). Variant R34F+S38F+R60K gave 41 nM (3 of 3 replicates; controls 1 of 9). Variant R60L+Q96A+L100N showed 51 nM (3 of 3 replicates; controls 1 of 9). For S33K+R60L, the assay gave 120 nM (3 of 3 replicates; controls 1 of 9). Variant S28P+R60Q+L102S showed 160 nM (3 of 3 replicates; controls 3 of 9).

Variant K24A+E32V+R60G gave 170 nM (1 of 3 replicates; controls 0 of 9). For R34V+R60S+S103T, the assay gave 250 nM (3 of 3 replicates; controls 0 of 9). For R34C+S58F+R60G, the assay gave 320 nM (2 of 3 replicates; controls 0 of 9). Variant Q27W+R34V+R60C gave 540 nM (1 of 3 replicates; controls 1 of 9). For R60V+R99T, the assay gave 570 nM (3 of 3 replicates; controls 3 of 9). Variant S33A+R60C+E61A showed 640 nM (3 of 3 replicates; controls 1 of 9). Variant L30F+S58G+R60I showed 690 nM (1 of 3 replicates; controls 1 of 9).

Variant N37P+S58E+R60G gave 1.1 µM (1 of 3 replicates; controls 1 of 9). For R60G+R99I+L102T, the assay gave 1.6 µM (2 of 3 replicates; controls 1 of 9). Variant S26E+K36L+R60V gave 1.6 µM (3 of 3 replicates; controls 3 of 9). Variant S28C+R60P+E61Q showed 1.7 µM (1 of 3 replicates; controls 0 of 9). With K24Y+R60H+H98C the result was 2.4 µM (3 of 3 replicates; controls 5 of 9). With V39C+W56D+R60F the result was 3.9 µM (2 of 3 replicates; controls 1 of 9). Variant R60N+E61C+S62N showed 4.1 µM (1 of 3 replicates; controls 0 of 9).

For S28H+A57R+R60N, the assay gave 5.6 µM (1 of 3 replicates; controls 3 of 9). Variant V39W+R60W+H98G gave 7.3 µM (1 of 3 replicates; controls 3 of 9). With A57W+R60Y the result was 8.3 µM (1 of 3 replicates; controls 3 of 9). For S28A+V29W+R60G, the assay gave 14 µM (1 of 3 replicates; controls 2 of 9). Variant S25H+R60I+S103G showed 18 µM (2 of 3 replicates; controls 3 of 9). Variant S26Q+R60A+E61P showed 21 µM (2 of 3 replicates; controls 6 of 9). With T59E+R60D+E61C the result was 36 µM (3 of 3 replicates; controls 6 of 9).

Variant E32G+N35F+R60P showed 63 µM (1 of 3 replicates; controls 3 of 9). For N35L+R60A+E61S, the assay gave 120 µM (2 of 3 replicates; controls 4 of 9). With N37D+A40R+R60V the result was 540 µM (2 of 3 replicates; controls 3 of 9). Variant S38K+T59E+R60A gave no signal (0 of 3 replicates; controls 0 of 9). With R60V+S62R the result was no signal (0 of 3 replicates; controls 1 of 9). With R34H+R60A+Y97H the result was no signal (0 of 3 replicates; controls 0 of 9). Variant S28A+R60V gave no signal (0 of 3 replicates; controls 0 of 9).

With V39F+R60P+Q95F the result was no signal (0 of 3 replicates; controls 3 of 9). With S25C+R60W+P101C the result was no signal (0 of 3 replicates; controls 1 of 9). Variant R60M+Q96C+L102Y showed no signal (0 of 3 replicates; controls 0 of 9). For R60F+Y97S+P101R, the assay gave no signal (0 of 3 replicates; controls 1 of 9). For R60W+Q95A, the assay gave no signal (0 of 3 replicates; controls 2 of 9). Variant K36I+R60D+P101A showed no signal (0 of 3 replicates; controls 0 of 9). Variant R60D+E61S+S62N showed no signal (0 of 3 replicates; controls 0 of 9).

Variant K24C+A57M+R60D showed no signal (0 of 3 replicates; controls 0 of 9). Variant R60M+H98R+L102F showed no signal (0 of 3 replicates; controls 0 of 9). With N37Y+R60D+E61H the result was no signal (0 of 3 replicates; controls 1 of 9). For Y31E+R60P, the assay gave no signal (0 of 3 replicates; controls 1 of 9). Variant V29E+W56Y+R60W gave no signal (0 of 3 replicates; controls 1 of 9). Variant L30G+R60D+H98E gave no signal (0 of 3 replicates; controls 0 of 9). For Y31W+R60I+Q96R, the assay gave no signal (0 of 3 replicates; controls 2 of 9).

For S58D+R60W, the assay gave no signal (0 of 3 replicates; controls 0 of 9). Variant S38M+S58I+R60V showed no signal (0 of 3 replicates; controls 1 of 9). For K36Q+R60D+Y97Q, the assay gave no signal (0 of 3 replicates; controls 0 of 9).

For reference, 5 entries of the list once more:

| changes | Kd (apparent) | replicates with signal | empty controls |
|---|---|---|---|
| K24C+A57M+R60D | no signal | 0/3 | 0/9 |
| R60M+H98R+L102F | no signal | 0/3 | 0/9 |
| R60F+Y97S+P101R | no signal | 0/3 | 1/9 |
| R60M+Q96C+L102Y | no signal | 0/3 | 0/9 |
| L30F+S58G+R60I | 690 nM | 1/3 | 1/9 |

As a blank, each scFv also met three strains without target: over library AAYL50, 18% of these pairings were detected, typically at 15 µM and seldom below 970 nM. Also given: how often the same scFv was detected with the empty control strains.

From the AlphaSeq antibody data of Engelhart et al. 2022 (doi:10.1038/s41597-022-01779-4), copy in the FLAb collection.